Test system: snap dragon (Antirrhinum majus)
Conditions: flower stems

CBr [Methyl Bromide]
yield increase (%), disinfestation (pre-plant soil disinfestation alone, compared to non-disinfested control): 24.0%
yield increase (%), disinfestation + urea-phosphite (pre-plant soil disinfestation followed by post-plant UP 0.1%): 52.0%
